Data taken from patent US12486268B2 (TRANSNEURAL THERAPEUTICS, INC., priority 2022, dated 2025).

Amino acid sequences for entries named in this document (tags omitted).
UniProt P28223, whole entry: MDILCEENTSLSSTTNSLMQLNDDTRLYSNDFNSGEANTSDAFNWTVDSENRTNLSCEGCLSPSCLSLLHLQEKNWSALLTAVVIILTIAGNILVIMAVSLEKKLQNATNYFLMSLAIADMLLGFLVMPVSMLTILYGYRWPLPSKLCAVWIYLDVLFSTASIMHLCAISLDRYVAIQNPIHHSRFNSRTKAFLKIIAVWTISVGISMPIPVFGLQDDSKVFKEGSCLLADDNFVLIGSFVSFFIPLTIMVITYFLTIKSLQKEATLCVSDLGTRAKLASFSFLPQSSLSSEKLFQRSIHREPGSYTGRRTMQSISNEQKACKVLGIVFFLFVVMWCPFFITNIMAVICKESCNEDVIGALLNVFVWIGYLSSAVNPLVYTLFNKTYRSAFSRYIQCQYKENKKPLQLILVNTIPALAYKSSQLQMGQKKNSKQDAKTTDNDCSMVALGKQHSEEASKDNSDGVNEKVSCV

Target: human serotonin 2A receptors (5-HT2AR) (Homo sapiens, UniProt P28223)
Assay: IP1 accumulation assay (HTRF)
Details: for EC50: read-out: h5-HT2A EC50, IP1 production (proxy for Gq activation), HEK 293 cells expressing human 5-HT2AR; for h5-HT2A Emax: IP1 production, HEK 293 cells expressing human 5-HT2AR, relative to 5-HT
Procedure: The functional activity of disclosed compounds is measured using an IP1 (inositol monophosphate) accumulation assay. The effects of disclosed compounds on IP1 production (a proxy for Gq activation) was measured in HEK 293 cells expressing human serotonin 2A receptors (5-HT2AR) using a Homogeneous Time Resolved Fluorescence (HTRF) assay. Standard protocols are followed. Briefly, a cell suspension and test compound/s is incubated in a standard buffer. Following incubation, the cells are lysed, and the fluorescence acceptor and donor are added. After incubation the fluorescence transfer is measured, and data is analyzed using GraphPad Prism to generate concentration response curves.

Structure (SMILES)	EC50	h5-HT2A Emax
C1=C(c2c[nH]c3ncccc23)C2CCC(C1)N2 (single isomer, unassigned)	> 10 µM	
CC1C=C(c2nsc3ccccc23)CNC1 (single isomer, unassigned) [161 Isomer 1]	0.1 to 1 µM	+++ (+++=>90)
CC1C=C(c2nsc3ccccc23)CNC1 (single isomer, unassigned) [161 Isomer 2]	< 0.1 µM	++ (++=75 to 90)
